Test results from ChEMBL document CHEMBL1154537, “Synthesis and evaluation of pyrido-thieno-pyrimidines as potent and selective Cdc7 kinase inhibitors” (Bioorg Med Chem Lett, 2009).

Assays:
Homo sapiens [1] = species: Homo sapiens; assay: Selectivity for human recombinant Cdc7/Dbf4 over human CDK2
Homo sapiens [2] = species: Homo sapiens; assay: Selectivity for human recombinant Cdc7/Dbf4 over human CDK4
Homo sapiens [3] = species: Homo sapiens; assay: Selectivity for human recombinant Cdc7/Dbf4 over human CDK1

Selectivity ratio (Homo sapiens [1]): > 500
Selectivity ratio (Homo sapiens [2]): > 500
Selectivity ratio (Homo sapiens [3]): > 500
SMILES: C=CCc1c(C)nc2sc3c(N)ncnc3c2c1C
